In ChEMBL document CHEMBL2380235, “Discovery of N-{4-[(3-hydroxyphenyl)-3-methylpiperazin-1-yl]methyl-2-methylpropyl}-4-phenoxybenzamide analogues as selective kappa opioid receptor antagonists” (J Med Chem, 2013):
Active and inactive are the calls of the source. The calls are words filed in the database; no cut-off is given here.

Amino acid sequences for entries named in this document (tags omitted). A change or cut given only in a name is not applied to a line headed by its entry.
UniProt P41145: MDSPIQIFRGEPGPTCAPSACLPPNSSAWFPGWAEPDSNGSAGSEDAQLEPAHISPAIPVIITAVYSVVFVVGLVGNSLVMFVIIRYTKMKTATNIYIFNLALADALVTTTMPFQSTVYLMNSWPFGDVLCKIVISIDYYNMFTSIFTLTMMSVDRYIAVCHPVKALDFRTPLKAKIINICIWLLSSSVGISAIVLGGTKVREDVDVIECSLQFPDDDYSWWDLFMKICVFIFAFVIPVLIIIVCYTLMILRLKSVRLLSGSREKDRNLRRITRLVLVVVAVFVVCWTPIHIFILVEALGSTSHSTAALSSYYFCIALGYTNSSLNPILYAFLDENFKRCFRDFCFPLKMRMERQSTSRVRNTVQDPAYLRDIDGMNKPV
UniProt P41143, whole entry: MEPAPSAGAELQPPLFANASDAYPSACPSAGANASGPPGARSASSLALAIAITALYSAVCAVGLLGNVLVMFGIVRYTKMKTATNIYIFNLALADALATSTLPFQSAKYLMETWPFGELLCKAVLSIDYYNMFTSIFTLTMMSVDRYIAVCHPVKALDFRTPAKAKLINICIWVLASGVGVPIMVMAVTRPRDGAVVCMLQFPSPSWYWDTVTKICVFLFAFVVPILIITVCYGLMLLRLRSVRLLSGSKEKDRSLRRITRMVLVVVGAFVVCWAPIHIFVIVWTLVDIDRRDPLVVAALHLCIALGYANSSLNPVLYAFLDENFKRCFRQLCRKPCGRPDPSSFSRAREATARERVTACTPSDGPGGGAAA
UniProt P35372, whole entry: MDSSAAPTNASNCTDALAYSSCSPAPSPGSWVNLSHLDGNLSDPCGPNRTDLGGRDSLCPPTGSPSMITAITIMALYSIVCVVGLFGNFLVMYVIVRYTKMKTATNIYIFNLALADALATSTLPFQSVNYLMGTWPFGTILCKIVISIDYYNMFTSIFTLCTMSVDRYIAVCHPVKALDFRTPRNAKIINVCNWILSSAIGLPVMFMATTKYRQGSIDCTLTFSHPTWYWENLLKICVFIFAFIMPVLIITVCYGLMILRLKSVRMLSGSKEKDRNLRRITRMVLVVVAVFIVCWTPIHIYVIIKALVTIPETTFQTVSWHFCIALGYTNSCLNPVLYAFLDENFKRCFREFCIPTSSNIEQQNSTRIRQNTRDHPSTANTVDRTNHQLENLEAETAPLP

Key:
[1] = target: Kappa-type opioid receptor (Homo sapiens) (UniProt P41145); experiment: Antagonist activity at human kappa opioid receptor expressed in CHO cells assessed as inhibition of U69,593-stimulated [35S]GTPgammaS binding; type: functional, cell-based
Method in brief: (§1)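 Agonist concentration-response curves (eight concentrations, duplicate) were run with or without a single test-compound concentration. Ke = [L]/(DR−1), where [L] is the test-compound concentration and DR is the ratio of agonist EC50 with versus without compound. At least two test-compound concentrations were used, chosen to shift agonist EC50 rightward at least four-fold while keeping a clear upper asymptote.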

[2] = target: Delta-type opioid receptor (Homo sapiens) (UniProt P41143); experiment: Antagonist activity at human delta opioid receptor expressed in CHO cells assessed as inhibition of DPDPE-stimulated [35S]GTPgammaS binding; type: functional, cell-based; method in brief: as §1
Homo sapiens [3] = species on record: Homo sapiens; experiment: Selectivity ratio of Ke for human mu opioid receptor to Ke for human kappa opioid receptor
[4] = target: Mu-type opioid receptor (Homo sapiens) (UniProt P35372); conditions: CHO
Homo sapiens [5] = species on record: Homo sapiens; experiment: Selectivity ratio of Ke for human delta opioid receptor to Ke for human kappa opioid receptor
[6] = target: Kappa-type opioid receptor (Homo sapiens) (UniProt P41145); experiment: Intrinsic activity at human kappa opioid receptor expressed in CHO cells at 10 uM by [35S]GTPgammaS binding assay; type: functional, cell-based
[7] = target: Kappa-type opioid receptor (Homo sapiens) (UniProt P41145); experiment: Antagonist activity at human kappa opioid receptor expressed in CHO cells assessed as inhibition of U69,593-stimulated [35S]GTPgammaS binding at 10 nM relative to control; type: functional, cell-based

Cc1ccc(O)c(Oc2ccc(C(=O)N[C@H](CN3CCN(c4cccc(O)c4)[C@@H](C)C3)C(C)C)cc2)c1
Ke [1]: 0.61 nM | Ke [2]: 93 nM | Ratio Ke (Homo sapiens [3]): 106 | Ke [4]: 65 nM | Ratio Ke (Homo sapiens [5]): 152

COc1ccc(C(=O)N[C@H](CN2CCN(c3cccc(O)c3)[C@@H](C)C2)C(C)C)cc1OC
Activity [6]: inactive | inhibition [7]: > 60%
